# T1: IL-7 receptor ectodomain (rhIL-7Rα) (human, UniProt P16871 21-239)
# T1 chain: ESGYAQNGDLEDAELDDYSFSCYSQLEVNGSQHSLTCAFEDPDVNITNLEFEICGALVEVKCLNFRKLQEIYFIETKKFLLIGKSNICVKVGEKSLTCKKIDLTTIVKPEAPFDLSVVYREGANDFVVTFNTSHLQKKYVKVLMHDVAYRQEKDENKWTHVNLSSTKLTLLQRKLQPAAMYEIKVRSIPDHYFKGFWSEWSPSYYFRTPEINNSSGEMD
# B1: recombinant human IL-7 produced in E. coli (non-glycosylated), intact (ligand)
# chain: DCDIEGKDGKQYESVLMVSIDQLLDSMKEIGSNCLNNEFNFFKRHICDANKEGMFLFRAARKLRQFLKMNSTGDFDLHLLKVSEGTTILLNCTGQVKGRKPAALGEAQPTKSLEENKSLKEQKKLNDLCFLKRLLQEIKTCWNKILMGTKEH
# B2: recombinant human IL-7 produced in human HEK-293 cells (fully glycosylated), intact (ligand)
# chain: DCDIEGKDGKQYESVLMVSIDQLLDSMKEIGSNCLNNEFNFFKRHICDANKEGMFLFRAARKLRQFLKMNSTGDFDLHLLKVSEGTTILLNCTGQVKGRKPAALGEAQPTKSLEENKSLKEQKKLNDLCFLKRLLQEIKTCWNKILMGTKEH
# modifications: N-linked oligosaccharides (fully glycosylated; sites shown in Figure 1D)
# Molecular target: T1, IL-7 receptor ectodomain (rhIL-7Rα)
# Assay: SPR
row,Binder,Kd [nM]
1,B1,77
2,B2,310
